Measured values taken from PubChem BioAssay AID2176 (The Scripps Research Institute Molecular Screening Center, 2009).
Only a part is listed here, and it is no random draw. Activity calls are given as the source filed them.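 How the source made its calls: active means inhibition above the primary screen's cutoff, its mean inhibition plus 3 SD (cut at about 35% in these data); inactive means the rest.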

By UniProt entry, the sequences of proteins in these tests, tags left out.
UniProt P78417, whole entry: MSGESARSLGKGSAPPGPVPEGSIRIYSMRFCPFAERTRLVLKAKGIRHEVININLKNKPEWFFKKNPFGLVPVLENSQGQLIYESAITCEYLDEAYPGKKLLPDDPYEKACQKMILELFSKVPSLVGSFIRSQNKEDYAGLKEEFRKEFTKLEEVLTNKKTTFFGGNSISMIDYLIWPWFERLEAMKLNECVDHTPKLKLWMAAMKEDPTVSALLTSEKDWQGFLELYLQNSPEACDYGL

Each molecule was assayed against Glutathione S-transferase omega-1 (Homo sapiens) (UniProt P78417) (assay: recombinant GSTO1 blockers, retest – biochemical, fluorescence polarization, triplicate, counter-screen for RBBP9 inhibitor project, confirmation (AID 2176;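 further: loss of polarization as inhibitors block binding of rhodamine sulfonate ester activity probe; 0% = GSTO1 with DMSO and 100% = wells lacking GSTO1 enzyme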)). Details: recombinant GSTO1, probe fluorescence polarization; at 5.96 µM; active compounds read high.

Question: Which inhibition does the source give for CC1=C2N=C(C=C3N=C(C(C)=C4[N-][C@@](C)([C@@H]5N=C1[C@](C)(CCC(=O)NC[C@@H](C)OP(=O)([O-])O[C@H]1[C@@H](O)[C@@H](n6cnc7cc(C)c(C)cc76)O[C@@H]1CO)[C@H]5CC(N)=O)[C@@](C)(CC(N)=O)[C@@H]4CCC(N)=O)[C@@](C)(CC(N)=O)[C@@H]3CCC(N)=O)C(C)(C)[C@@H]2CCC(N)=O.[C-]#N.[Co+3] here?
Answer: active: 72.5%

Question: For O=[N+]([O-])c1cc([N+](=O)[O-])c(Nc2cccnc2)c([N+](=O)[O-])c1, which inhibition is on record?
Answer: inactive: 12%
